Test results: patent US9850225B2, “Compounds useful as immunomodulators” (BRISTOL-MYERS SQUIBB COMPANY, priority 2014, dated 2017)

Sequences of proteins named here, by UniProt entry; tags and fusion partners are left off. A line that says so, or that is headed by a name, gives the form on record, which may keep a tag or linker. Residues count along the entry.
UniProt Q9NZQ7, 18-239 with tags or gaps limits assumed: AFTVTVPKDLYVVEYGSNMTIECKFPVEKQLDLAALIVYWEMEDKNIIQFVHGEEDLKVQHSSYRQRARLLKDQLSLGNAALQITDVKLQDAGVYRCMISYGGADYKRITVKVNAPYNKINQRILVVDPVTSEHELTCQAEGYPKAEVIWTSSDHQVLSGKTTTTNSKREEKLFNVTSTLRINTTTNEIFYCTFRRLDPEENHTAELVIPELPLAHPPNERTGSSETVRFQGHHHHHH

Biological target: PD-1/PD-L1 interaction (PD-1-Ig / PD-L1-His) (Homo sapiens (Human), UniProt Q9NZQ7)
Test: PD-1/PD-L1 Homogenous Time-Resolved Fluorescence (HTRF) binding assay
Settings: read-out: Range or IC50
[1] = PD-1/PD-L1 HTRF binding assay, value given as range class

Row | Structure (SMILES) | IC50 [1] [nM] | IC50 [nM]
1 | CC(=O)NCCNCc1ccc(OCc2cccc(-c3ccccc3)c2C)cc1OCc1cccc(C(F)(F)F)c1F | 100 to 20000 | 
2 | Cc1c(COc2cc(OCc3cncc(C#N)c3)c(CN3CC(O)C(O)[C@H]3C(=O)O)cc2Cl)cccc1-c1ccc2c(c1)OCCO2 (single isomer, unassigned) | 0.6 to 10 | 
3 | CC(=O)NCCNCc1ccc(OCc2cccc(-c3ccccc3)c2C)cc1OCc1cc(C)on1 |  | 100 to 20000

Where two headings read alike, the source gives them in different places.
